scFv variants of Ab-14 (light chain) against a SARS-CoV-2 spike peptide

Source: Engelhart et al. 2022 (doi:10.1038/s41597-022-01779-4), MIT Lincoln Laboratory and A-Alpha Bio; data file from the FLAb repository.

All variants were tested on one target, the spike HR2 peptide PDVDLGDISGINAS (SARS-CoV-2).

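The parent was found by panning a naive human phage display library on the peptide. AAYL50 was designed without a model: most single CDR substitutions and a random sample of double and triple ones. AlphaSeq pools MATa yeast showing the antibodies with MATalpha yeast showing the peptide. Pairs that bind mate more often; barcode pairs of the diploids are counted by sequencing. Scores were corrected for input abundance and mapped to Kd with protein pairs of known affinity run in the same pool. There are three technical replicates.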

Parent: Ab-14, a human scFv built as VH, a 15-residue (Gly4Ser)3 linker, VL. Only the CDRs of the light chain vary.
VH: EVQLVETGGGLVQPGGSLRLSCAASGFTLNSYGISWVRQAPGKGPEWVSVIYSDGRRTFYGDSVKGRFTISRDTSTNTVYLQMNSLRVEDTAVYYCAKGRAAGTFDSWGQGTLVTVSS
VL: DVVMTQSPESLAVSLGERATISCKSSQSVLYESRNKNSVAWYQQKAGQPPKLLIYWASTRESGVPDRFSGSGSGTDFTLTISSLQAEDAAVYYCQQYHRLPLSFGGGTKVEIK

Substitutions are numbered in sequence along the VL above, starting at 1 (not Kabat).
The read-out is the apparent dissociation constant on a log10 scale (nM): the lower, the stronger.
Replicates are averaged; those with no signal do not enter the mean.
An entry "ND" has no value in the source: the pair was not observed among the diploids in that replicate. This suggests poor binding but is not conclusive.
Empty control strains, which show no peptide, gave a signal in 18% of pairings with library AAYL50; the median was 4.19 and 95% of these signals were weaker than 2.99. No background was subtracted. The control count says in how many pairings with the empty strains this scFv gave a signal, with their mean in brackets.
For reference, the parent read 0.65 as the reference entry and 1.68 as a member of this library.

changes	log10 Kd, replicates	mean log10 Kd (nM)	control signals
N37V+S38V+Y97V	5.70 4.13 6.56	5.46	5 of 9 (4.77)
R34H+R60I+Q96W	4.65 5.06 ND	4.85	6 of 9 (4.43)
E32P+S62D+L102S	ND ND 5.54	5.54	1 of 9 (3.14)
R34A+E61A+Q95F	0.15 0.38 0.16	0.23	0 of 9
V29D+S62Y	0.89 0.95 0.99	0.94	0 of 9
L30D+S58W+Y97F	ND 3.69 ND	3.69	1 of 9 (3.08)
V29N+S33I+R99G	2.50 2.82 2.43	2.58	1 of 9 (5.07)
S33K+N35D+V39F	ND 4.51 ND	4.51	1 of 9 (2.18)
N35K+W56Q+P101W	ND ND ND	ND	0 of 9
K24A+L30D+A40G	ND ND ND	ND	0 of 9
S38R+W56V+L100E	ND 5.10 3.24	4.17	1 of 9 (3.86)
N35M+A40P+S58A	ND ND ND	ND	1 of 9 (3.73)
V39T+W56C+L100V	3.99 3.83 4.27	4.03	2 of 9 (4.27)
N37S+S58E+P101H	ND ND ND	ND	2 of 9 (2.78)
E32D+A40Y+P101F	ND ND ND	ND	0 of 9
S26G+S28G+W56G	-0.88 -0.48 -0.80	-0.72	0 of 9
S25P+H98L+L100V	3.56 2.94 4.07	3.53	2 of 9 (4.51)
S33M+S62H+Q96T	1.85 2.09 2.17	2.04	0 of 9
E61H+Y97S+P101L	4.06 4.01 4.54	4.20	1 of 9 (4.42)
Y31Q+S62I+R99V	1.50 1.39 1.63	1.51	1 of 9 (3.42)
Q27W+L30H+S103Y	1.34 1.19 1.22	1.25	2 of 9 (4.60)
V29G+T59V+L100C	4.08 ND ND	4.08	3 of 9 (3.90)
Y31L+S38F+V39G	ND ND ND	ND	0 of 9
A57D+R60G+R99W	ND ND ND	ND	0 of 9
S28F+A40L+S103Q	ND 3.49 5.01	4.25	0 of 9
K36G+S38D+L100Q	ND 4.42 4.96	4.69	4 of 9 (3.99)
Y31N+S33D+Q95K	ND ND ND	ND	1 of 9 (3.92)
V39S+A57N+S103F	ND ND ND	ND	0 of 9
Q95Y+L102D	ND 2.75 ND	2.75	3 of 9 (3.84)
V29T+N37W+L102W	ND 3.22 ND	3.22	3 of 9 (4.77)
V29F+W56G+L100Y	1.11 1.18 1.25	1.18	3 of 9 (3.83)
N35K+L100G+L102H	1.28 1.39 1.28	1.31	0 of 9
V29S+N35G+K36G	1.22 1.97 1.46	1.55	0 of 9
L30D+W56Y+A57S	0.51 0.77 0.67	0.65	0 of 9
N35W+K36D+R60D	ND ND ND	ND	1 of 9 (4.27)
S28T+R60N+Q96I	3.73 ND ND	3.73	2 of 9 (4.26)
Y31A+K36G+R60S	2.63 2.31 3.02	2.65	3 of 9 (4.17)

Again, the first 5 entries without any signal:

| changes | log10 Kd, replicates | mean log10 Kd (nM) | control signals |
|---|---|---|---|
| N35K+W56Q+P101W | ND ND ND | ND | 0 of 9 |
| K24A+L30D+A40G | ND ND ND | ND | 0 of 9 |
| N35M+A40P+S58A | ND ND ND | ND | 1 of 9 (3.73) |
| N37S+S58E+P101H | ND ND ND | ND | 2 of 9 (2.78) |
| E32D+A40Y+P101F | ND ND ND | ND | 0 of 9 |